Source: paper PMC12102759

B1: MBOAT1 peptide 15-30 (Lysophospholipid acyltransferase 1), 16-mer library wild type / USP7 MATH (USP7 MATH domain, residues 53-206) (parent)
chain 1: TGSTYLHPLSELLGIP
chain 2: NTAEEDMEDDTSWRSEATFQFTVERFSRLSESVLSPPCFVRNLPWKIMVMPRFYPDRPHQKSVGFFLQCNAESDSTSWSCHAQAVLKIINYRDDEKSFSRRISHLFFHKENDWGFSNFMAWSEVTDPEKGFIDDDKVTFEVFVQADAPHGVAWD
B2: CAPRIN1 peptide 364-379 (Caprin-1), 16-mer library wild type / G3BP1 NFT2 (G3BP1 NTF2 domain, residues 1-139) (parent)
chain 1: AQMQGPYNFIQDSMLD
chain 2: MVMEKPSPLLVGREFVRQYYTLLNQAPDMLHRFYGKNSSYVHGGLDSNGKPADAVYGQKEIHRKVMSQNFTNCHTKIRHVDAHATLNDGVVVQVMGLLSNNNQALRRFMQTFVLAPEGSVANKFYVHNDIFRYQDEVFG

Variants of: B1
Experiment: proteomic peptide phage display deep mutational scan (ProP-PD DMS): M13 P8 16-mer library selected against immobilised GST-tagged bait for four days (rounds), NGS of the eluted pools per day and pseudo-replica
Conditions: with USP7 MATH (USP7 MATH domain, residues 53-206); bait immobilised on MaxiSorp plates (10 µg), library pre-cleared on GST, 2 h binding at 4 °C, five washes; one round per day, days 1-4; value from days 2 and 3; keep out of graded; scale: average fractional NGS count over selection days 2 and 3

First: chain 1 S3R
Second: chain 1 S3V
The screen value of the first is lower: 0 for the first, 1.23e-05 for the second.

Going from chain 1 S3W to chain 1 S3Y, the screen value falls from 0.000137 to 0.

chain 1 S10E and chain 1 S10K are the same in screen value: 0 for the first, 0 for the second.

chain 1 S10P and chain 1 S10Q are the same in screen value: 0 for the first, 0 for the second.

First: chain 1 S10V
Second: chain 1 T4E
The screen value of the first is lower: 0 for the first, 0.000154 for the second.

Compared with chain 1 T4F, chain 1 T4G is lower in screen value: 9.4e-06 for the first, 0 for the second.

Going from chain 1 T4M to chain 1 T4N, the screen value falls from 0.000102 to 0.

chain 1 T4Q and chain 1 T4R are the same in screen value: 0 for the first, 0 for the second.

First: chain 1 T4S
Second: chain 1 T4Y
The screen value of the first is higher: 8.6e-06 for the first, 0 for the second.

Going from chain 1 Y5A to chain 1 Y5D, the screen value rises from 0 to 7.37e-05.

chain 1 Y5G and chain 1 Y5M are the same in screen value: 0 for the first, 0 for the second.

chain 1 Y5N and chain 1 Y5P are the same in screen value: 0 for the first, 0 for the second.

chain 1 Y5Q and chain 1 Y5S are the same in screen value: 0 for the first, 0 for the second.

Compared with chain 1 Y5V, chain 1 Y5W is higher in screen value: 6.69e-06 for the first, 0.00149 for the second.

Variants of: B2
Experiment: as above
Conditions: with G3BP1 NFT2 (G3BP1 NTF2 domain, residues 1-139); bait immobilised on MaxiSorp plates (10 µg), library pre-cleared on GST, 2 h binding at 4 °C, five washes; one round per day, days 1-4; value from days 2 and 3; keep out of graded; scale: average fractional NGS count over selection days 2 and 3

Compared with chain 1 KQMQGPYNFIQDSMLD [chain 1 A1K], chain 1 AQMQGPYNFIQISMLD [chain 1 D12I] is lower in screen value: 4.57e-05 for the first, 2.06e-05 for the second.

chain 1 AQMQGPYNFIQWSMLD [chain 1 D12W] and chain 1 AQMQGPYNAIQDSMLD [chain 1 F9A] are the same in screen value: 0 for the first, 0 for the second.

chain 1 AQMQGPYNIIQDSMLD [chain 1 F9I] and chain 1 AQMQGPYNMIQDSMLD [chain 1 F9M] are the same in screen value: 0 for the first, 0 for the second.

chain 1 AQMQGPYNNIQDSMLD [chain 1 F9N] and chain 1 AQMQGPYNPIQDSMLD [chain 1 F9P] are the same in screen value: 0 for the first, 0 for the second.

Compared with chain 1 AQMQGPYNTIQDSMLD [chain 1 F9T], chain 1 AQMQEPYNFIQDSMLD [chain 1 G5E] is higher in screen value: 0 for the first, 8.26e-05 for the second.

Going from chain 1 AQMQRPYNFIQDSMLD [chain 1 G5R] to chain 1 AQMQGPYNFAQDSMLD [chain 1 I10A], the screen value rises from 2.06e-05 to 8.85e-05.

Compared with chain 1 AQMQGPYNFEQDSMLD [chain 1 I10E], chain 1 AQMQGPYNFNQDSMLD [chain 1 I10N] is higher in screen value: 4.02e-05 for the first, 4.39e-05 for the second.

First: chain 1 AQMQGPYNFPQDSMLD [chain 1 I10P]
Second: chain 1 AQMQGPYNFRQDSMLD [chain 1 I10R]
The screen value of the first is lower: 0 for the first, 0.000113 for the second.

Going from chain 1 AQMQGPYNFSQDSMLD [chain 1 I10S] to chain 1 AQMQGPYNFIQDSMAD [chain 1 L15A], the screen value falls from 7.25e-05 to 2.87e-05.

chain 1 AQMQGPYNFIQDSMDD [chain 1 L15D] and chain 1 AQMQGPYNFIQDSMED [chain 1 L15E] are the same in screen value: 2.23e-05 for the first, 2.23e-05 for the second.

chain 1 AQMQGPYNFIQDSMGD [chain 1 L15G] and chain 1 AQMQGPYNFIQDSMND [chain 1 L15N] are the same in screen value: 0 for the first, 0 for the second.

Going from chain 1 AQMQGPYNFIQDSMPD [chain 1 L15P] to chain 1 AQMQGPYNFIQDSMQD [chain 1 L15Q], the screen value falls from 5.63e-05 to 0.

Going from chain 1 AQMQGPYNFIQDSMTD [chain 1 L15T] to chain 1 AQMQGPYNFIQDSGLD [chain 1 M14G], the screen value rises from 0 to 3.45e-05.

First: chain 1 AQMQGPYNFIQDSKLD [chain 1 M14K]
Second: chain 1 AQMQGPYNFIQDSPLD [chain 1 M14P]
The screen value of the first is higher: 3.76e-05 for the first, 0 for the second.

Compared with chain 1 AQMTGPYNFIQDSMLD [chain 1 Q4T], chain 1 AQMQGPYNFIADSMLD [chain 1 Q11A] is higher in screen value: 4.85e-05 for the first, 5.63e-05 for the second.

chain 1 AQMQGPYNFIDDSMLD [chain 1 Q11D] and chain 1 AQMQGPYNFIEDSMLD [chain 1 Q11E] are the same in screen value: 0 for the first, 0 for the second.

Compared with chain 1 AQMQGPYNFIIDSMLD [chain 1 Q11I], chain 1 AQMQGPYNFIYDSMLD [chain 1 Q11Y] is higher in screen value: 0 for the first, 3.52e-05 for the second.

Compared with chain 1 AQMQGPYNFIQDEMLD [chain 1 S13E], chain 1 AQMQGPYNFIQDFMLD [chain 1 S13F] is higher in screen value: 0 for the first, 4.39e-05 for the second.

First: chain 1 AQMQGPYNFIQDHMLD [chain 1 S13H]
Second: chain 1 AQMQGPYNFIQDIMLD [chain 1 S13I]
The screen value of the first is lower: 0 for the first, 2.87e-05 for the second.

chain 1 AQMQGPYNFIQDKMLD [chain 1 S13K] and chain 1 AQMQGPYNFIQDMMLD [chain 1 S13M] are the same in screen value: 0 for the first, 0 for the second.

chain 1 AQMQGPYNFIQDPMLD [chain 1 S13P] and chain 1 AQMQGPYNFIQDQMLD [chain 1 S13Q] are the same in screen value: 0 for the first, 0 for the second.

Compared with chain 1 AQMQGPYNFIQDVMLD [chain 1 S13V], chain 1 AQMQGPYNFIQDYMLD [chain 1 S13Y] is lower in screen value: 3.73e-05 for the first, 1.86e-05 for the second.

chain 1 AQMQGPANFIQDSMLD [chain 1 Y7A] and chain 1 AQMQGPGNFIQDSMLD [chain 1 Y7G] are the same in screen value: 0 for the first, 0 for the second.

Going from chain 1 AQMQGPKNFIQDSMLD [chain 1 Y7K] to chain 1 AQMQGPMNFIQDSMLD [chain 1 Y7M], the screen value rises from 0 to 7.42e-05.

Going from chain 1 AQMQGPQNFIQDSMLD [chain 1 Y7Q] to chain 1 AQMQGPTNFIQDSMLD [chain 1 Y7T], the screen value falls from 8.09e-05 to 0.
